In patent US20220204476A1, “RNA VIRUS INHIBITOR COMPOUNDS AND USES THEREOF” (The Governors of the University of Alberta, priority 2020, published 2022):

Assay: Cytotoxicity, CellTiter-Glo luminescent cell viability assay
Conditions: human (A549) and green monkey (Vero E6)

Question: With `COc1cc(Cl)cc2[nH]c(C(=O)N[C@@H](CC(C)C)C(=O)N[C@H](C#N)C[C@@H]3CCCNC3=O)cc12` [Compound 68, 6-chloro-N-[(2S)-1-({(1S)-1-cyano-2-[(3S)-2-oxopiperidin-3-yl]ethyl}amino)-4-methyl-1-oxopentan-2-yl]-4-methoxy-1H-indole-2-carboxamide] as the compound, how does the CC50 at 24 h read?
Answer: > 200 µM
